Legend:
[1] = target: mouse histone H3.1 (mouse, UniProt P68433 1-136); assay: BLI; Octet K2, 30 C; sNASP WT or variant immobilised on aminopropylsilane (APS) biosensors, histones in assay buffer at various concentrations (62.5 to 1,000 nM shown for H4), association 240 s; n = 4; details: both partners purified
[2] = target: mouse H3.1/H4 tetramer complex (mouse, UniProt P68433 1-136; P62806 1-103); assay: as above; details: both partners purified

B1: mouse WT sNASP (somatic nuclear autoantigenic sperm protein), B6 allele (natural protein)
chain: MATESTAAAAIAAELVSADKIEDAPAPSTSADKMESLDVDSEAKKLLGLGQKHLVMGDIPAAVNAFQEAASLLGKKYGETANECGEAFFFYGKSLLELARMENGVLGNALEGVHVEEEEGEKTEDESLVENNDNVDETEGSEEEDRENDKAEETPNESVLEKKSLQENEEEEIGNLELAWDMLDLAKIIFKRQETKEAQLYAAQAHLKLGEVSVESENYIQAVEEFQACLSLQEQYLEAHDRLLAETHYQLGLAYGYNSQYDEAVAQFGKSIDVIEKRMAVLHEQMKEAEGSFTEYEKEIEELKELLPEIREKIEDAKESQRSGNVAELALKATLVESSTSGFTPSGAGASVSMIASRKPTDGASSSNCVTDISHLVRKKRKPEEESPRKDDAKKAKQEPEVNGGSGDAVSSGKEVSENMEAEAENQAESQTAEGTVESAATIKSTAC
Kd [1]: 0.0136 µM | kon [1]: 8690 M⁻¹ s⁻¹ | Kd [2]: 0.0402 µM | kon [2]: 24400 M⁻¹ s⁻¹
